We go through 2 compounds from PubChem BioAssay AID834 (PCMD, 2007).

Only a part is listed here, and it is no random draw. Some results for these compounds are left out of this collection, so the calls shown say nothing about other tests. Active and inactive are the calls of the source.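 How the source made its calls: active means inhibition above 20%; inactive means inhibition below 20%.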

A short description of this experiment: clotrimazole potentiators killing Candida biofilms, primary screen, with clotrimazole, Alamar Blue (AID 834).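 Further: preformed 24 hr biofilms exposed to compound for 48 hr; 0% = biofilm without compound and 100% = blank killed by clotrimazole plus chlorhexidine.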 To be noted: C. albicans biofilm + clotrimazole, at 6 µM, hits give high values. (Resazurin is reduced to fluorescent resorufin, in cell work by metabolically active cells.)
In general, inhibition refers to the change of the read-out against control, counted positive when it falls. On to `O=C(OC1CN2CCC1CC2)C(CO)(c1ccccc1)c1ccccc1` (configuration not stated), for which the inhibition was inactive: 8.54%.

In the case of `CN(C)c1cccc(C(=O)NCC2(N(C)C)CCCCC2)c1`, the inhibition was inactive: 6.64%.
